In ChEMBL document CHEMBL4825735, “Estimation of the lipophilicity of purine-2,6-dione-based TRPA1 antagonists and PDE4/7 inhibitors with analgesic activity” (Bioorg Med Chem Lett, 2021):

Test: Lipophilicity, logP of compound by shake flask method
Assay type: physicochemical
Conditions: octanol/water

Structure (SMILES): O=c1n(CCCN2CCN(c3cccc(Cl)c3)CC2)nc2ccccn12 [TRAZODONE]
- logP: 2.9
